Results on 1 molecule are retold here after article PMC12430830, “Discovery of a Novel Cyclopeptide as Tyrosinase Inhibitor for Skin Lightening” (Skin Research and Technology, 2025).

The series relates to human melanocyte cells.

As for `NC[C@H]1CC[C@H](C(=O)O)CC1` [tranexamic acid], the cell viability entry is “above 90%”.
